Test results: patent US20260384443A1, “THIADIAZOLES AS GLUTAMINASE I INHIBITORS” (published 2026)

Sequences of proteins named here, by UniProt entry; tags and fusion partners are left off. Residues count along the entry.
UniProt O94925, 55-669 limits assumed: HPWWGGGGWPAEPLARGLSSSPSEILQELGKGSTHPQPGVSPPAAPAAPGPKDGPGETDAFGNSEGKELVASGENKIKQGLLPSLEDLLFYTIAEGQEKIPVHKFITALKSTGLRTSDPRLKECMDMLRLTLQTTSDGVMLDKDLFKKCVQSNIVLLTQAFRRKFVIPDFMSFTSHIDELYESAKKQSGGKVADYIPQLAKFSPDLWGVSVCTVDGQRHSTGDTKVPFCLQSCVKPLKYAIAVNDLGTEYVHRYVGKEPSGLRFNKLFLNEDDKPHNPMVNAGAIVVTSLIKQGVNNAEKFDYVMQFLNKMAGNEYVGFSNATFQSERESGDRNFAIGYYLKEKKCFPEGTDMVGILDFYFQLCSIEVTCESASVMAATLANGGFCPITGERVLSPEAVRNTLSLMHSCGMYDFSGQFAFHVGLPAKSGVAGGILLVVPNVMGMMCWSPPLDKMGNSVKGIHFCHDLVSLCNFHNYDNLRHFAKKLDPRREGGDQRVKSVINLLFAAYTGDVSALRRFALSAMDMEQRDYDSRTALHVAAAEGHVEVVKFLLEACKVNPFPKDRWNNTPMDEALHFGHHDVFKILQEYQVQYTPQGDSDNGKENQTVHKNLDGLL
UniProt O94925, 73-669 limits assumed: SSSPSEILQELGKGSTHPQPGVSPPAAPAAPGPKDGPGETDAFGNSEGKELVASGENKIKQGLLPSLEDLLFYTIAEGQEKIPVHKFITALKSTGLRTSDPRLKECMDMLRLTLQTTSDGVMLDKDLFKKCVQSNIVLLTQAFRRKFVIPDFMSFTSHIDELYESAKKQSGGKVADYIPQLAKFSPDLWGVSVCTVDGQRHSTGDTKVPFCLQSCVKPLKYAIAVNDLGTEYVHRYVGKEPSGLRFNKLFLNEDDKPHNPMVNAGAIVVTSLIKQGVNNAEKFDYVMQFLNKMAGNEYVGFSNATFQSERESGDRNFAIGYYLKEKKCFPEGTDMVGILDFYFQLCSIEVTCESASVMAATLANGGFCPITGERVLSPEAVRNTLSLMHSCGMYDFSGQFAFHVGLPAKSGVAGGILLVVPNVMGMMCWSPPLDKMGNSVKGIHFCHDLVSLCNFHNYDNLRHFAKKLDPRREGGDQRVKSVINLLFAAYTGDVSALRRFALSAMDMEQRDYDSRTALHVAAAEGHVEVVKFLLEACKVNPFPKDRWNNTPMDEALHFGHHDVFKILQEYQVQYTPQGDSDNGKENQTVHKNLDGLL

Key:
GLS1 [1] = target: T1, GLS1 (Homo sapiens, UniProt O94925); test: GLS1 cell assay: intracellular glutamate level in A549 cells (Glutamine/Glutamate-Glo); settings: read-out: Cell IC50, 2 h compound pre-incubation, then 24 h with L-Gln
GLS1 [2] = target: T1, GLS1; test: GLS1 enzymatic assay (three-stage coupled endpoint assay: GLS1/GDH/diaphorase, resorufin fluorescence); settings: read-out: Enzyme IC50

SMILES | IC50 (GLS1 [1]) | IC50 (GLS1 [2])
COC(C(=O)Nc1nnc(N[C@@H]2CCN(c3cccnn3)C2)s1)C1CCN(Cc2ccccc2SC(C)C)CC1 (some centres unmarked) | 7.5 nM | 275 nM
CN1CCN(Cc2cccc(OC(F)(F)F)c2)[C@@H](CC(=O)Nc2nnc(N[C@@H]3CCN(c4cccnn4)C3)s2)C1 (single isomer, unassigned) [Example 66] | 20 nM | 53.2 nM
O=C(C[C@@H]1CN(C2CCC3(CCC3)CC2)CCO1)Nc1nnc(N[C@@H]2CCN(c3cccnn3)C2)s1 (single isomer, unassigned) [Example 276] | 14.6 nM | 31.2 nM
CC(C)Oc1ccccc1CN1CCC(CCC(=O)Nc2nnc(N[C@@H]3CCN(c4cccnn4)C3)s2)CC1 | 34.6 nM | 28.1 nM
O=C(C[C@@H]1CCN(Cc2cccc(OC(F)(F)F)c2)C1)Nc1nnc(N[C@@H]2CCN(c3cccnn3)C2)s1 | 7.1 nM | 47 nM
O=C(Nc1nnc(N[C@@H]2CCN(c3cccnn3)C2)s1)[C@@H]1CCCN(Cc2ccc(OC(F)(F)F)cc2)C1 | 24.6 nM | 115 nM
O=C(CC1CCN(Cc2cccc(C(=O)O)c2)CC1)Nc1nnc(N[C@@H]2CCN(c3cccnn3)C2)s1 | 9590 nM | 77.4 nM
O=C(CN1CCN(C2CCC3(CCCC3)CC2)CC1)Nc1nnc(N[C@@H]2CCN(c3cccnn3)C2)s1 | 12.4 nM | 32.6 nM
Cc1cc(C)cc(CN2CCC3(CC2)COC(C(=O)Nc2nnc(N[C@@H]4CCN(c5cccnn5)C4)s2)C3)c1 (some centres unmarked) | 8.5 nM | 42.9 nM
O=C(Nc1nnc(N[C@@H]2CCN(c3cccnn3)C2)s1)[C@@H]1CCCN(Cc2cccc(OC(F)(F)F)c2)C1 | 12 nM | 51.2 nM
O=C(C[C@H]1CCCN(Cc2ccc(OC(F)(F)F)cc2)C1)Nc1nnc(N[C@@H]2CCN(c3cccnn3)C2)s1 | 12.5 nM | 28.8 nM
C[C@H](c1cc(F)cc(F)c1)N1CCC[C@@H](CC(=O)Nc2nnc(N[C@@H]3CCN(c4cccnn4)C3)s2)C1 (single isomer, unassigned) [Example 241] | 5.6 nM | 49.6 nM
CC1(C)CCC(CN2CCC(CC(=O)Nc3nnc(N[C@@H]4CCN(c5cccnn5)C4)s3)CC2)CC1 | 34.5 nM | 68.2 nM
O=C(CC1CCN(Cc2ccccc2OC(F)F)CC1)Nc1nnc(N[C@@H]2CCN(c3cccnn3)C2)s1 | 64 nM | 34.4 nM
O=C(Nc1nnc(N[C@@H]2CCN(c3cccnn3)C2)s1)C1CC2(CCN(Cc3ccccc3OC3CCC3)CC2)CO1 (some centres unmarked) | 6.4 nM | 53.4 nM
Cc1ccc([C@H](C)N2CCC[C@@H](CC(=O)Nc3nnc(N[C@@H]4CCN(c5cccnn5)C4)s3)C2)cc1F (single isomer, unassigned) [Example 260] | 12.2 nM | 34.1 nM
Cc1ccc([C@H](C)N2CCC[C@@H](CC(=O)Nc3nnc(N[C@@H]4CCN(c5cccnn5)C4)s3)C2)c(F)c1 (single isomer, unassigned) [Example 263] | 11.1 nM | 29.7 nM
COc1cc(CN2CCC[C@@H](CC(=O)Nc3nnc(N[C@@H]4CCN(c5cccnn5)C4)s3)C2)cc(C)c1F | 14.1 nM | 26.1 nM
CN1CCN(CC2CCC(C)(C)CC2)CC1CC(=O)Nc1nnc(N[C@@H]2CCN(c3cccnn3)C2)s1 (some centres unmarked) | 16.8 nM | 49.4 nM
CCc1oc2ccccc2c1CN1CCC[C@@H](CC(=O)Nc2nnc(N[C@@H]3CCN(c4cccnn4)C3)s2)C1 | 9.3 nM | 178 nM
CC1(C)CCC(CN2CCCN(CC(=O)Nc3nnc(N[C@@H]4CCN(c5cccnn5)C4)s3)CC2)CC1 | 25 nM | 71.1 nM
Cc1cc(C)nc(CN2CCC3(CCC(CC(=O)Nc4nnc(N[C@@H]5CCN(c6cccnn6)C5)s4)CC3)CC2)c1 | 35.7 nM | 39.2 nM
O=C(CC1CN(C2CCCC2)CCO1)Nc1nnc(N[C@@H]2CCN(c3cccnn3)C2)s1 (some centres unmarked) | 112 nM | 52.2 nM
O=C(CC1CCN(Cc2cncc(C(F)(F)F)c2)CC1)Nc1nnc(N[C@@H]2CCN(c3cccnn3)C2)s1 | 11.8 nM | 28.8 nM
Cc1ccc(C(C)N2CCC[C@@H](CC(=O)Nc3nnc(N[C@@H]4CCN(c5cccnn5)C4)s3)C2)cc1F (some centres unmarked) | 9.2 nM | 22.4 nM
CC(C)Sc1ccccc1CN1CCC(O)(CC(=O)Nc2nnc(N[C@@H]3CCN(c4cccnn4)C3)s2)CC1 | 31.5 nM | 40.7 nM
O=C(CC1CC2(CO1)CN(Cc1cccc(OC(F)F)c1)C2)Nc1nnc(N[C@@H]2CCN(c3cccnn3)C2)s1 (some centres unmarked) | 23.2 nM | 21.9 nM
CCC1(CC)CCC(N2CCO[C@H](CC(=O)Nc3nnc(N[C@@H]4CCN(c5cccnn5)C4)s3)C2)CC1 (single isomer, unassigned) [Example 147] | 6.2 nM | 19.2 nM

The next lines start with the values.

IC50 (GLS1 [1]) | IC50 (GLS1 [2]) | SMILES
5.4 nM | 65.9 nM | Cc1cc(OC(F)(F)F)ccc1CN1CCC(CC(=O)Nc2nnc(N[C@@H]3CCN(c4cccnn4)C3)s2)CC1
1.6 nM | 65.3 nM | O=C(Nc1nnc(N[C@@H]2CCN(c3cccnn3)C2)s1)C1CC2(CCN(Cc3cccc(OC(F)(F)F)c3)CC2)CO1 (some centres unmarked)
3 nM | 26 nM | CCC1(CC)CCC(N2CCOC(CC(=O)Nc3nnc(N[C@@H]4CCN(c5cccnn5)C4)s3)C2)CC1 (some centres unmarked)
2.5 nM | 82.5 nM | COC(C(=O)Nc1nnc(N[C@@H]2CCN(c3cccnn3)C2)s1)C1CCN(Cc2ccc(OC(F)(F)F)cc2)CC1 (some centres unmarked)
3.4 nM | 23.3 nM | CC1(C)CC(N2CCOC(CC(=O)Nc3nnc(N[C@@H]4CCN(c5cccnn5)C4)s3)C2)CC1(C)C (some centres unmarked)
4.1 nM | 161 nM | O=C(C[C@H]1C[C@@]2(CCN(Cc3cccc(OC(F)(F)F)c3)C2)C1)Nc1nnc(N[C@@H]2CCN(c3cccnn3)C2)s1 (single isomer, unassigned) [Example 189]
3.7 nM | 87.3 nM | CC(C)Sc1ccccc1CN1CCC[C@@H](OCC(=O)Nc2nnc(N[C@@H]3CCN(c4cccnn4)C3)s2)C1 (single isomer, unassigned) [Example 106]
2.3 nM | 16.4 nM | O=C(C[C@@H]1CN(C2CCC3(CCCC3)CC2)CCO1)Nc1nnc(N[C@@H]2CCN(c3cccnn3)C2)s1 (single isomer, unassigned) [Example 272]
5.5 nM | 14 nM | CCOc1cc(CN2CCC[C@@H](CC(=O)Nc3nnc(N[C@@H]4CCN(c5cccnn5)C4)s3)C2)cc(F)c1F
1.7 nM | 24.6 nM | O=C(CC1CN(C2CCC3(CC2)CC3)CCC1(F)F)Nc1nnc(N[C@@H]2CCN(c3cccnn3)C2)s1 (some centres unmarked)
1 nM | 21.7 nM | O=C(C[C@H]1CN(C2CC3(CCCCC3)C2)CCO1)Nc1nnc(N[C@@H]2CCN(c3cccnn3)C2)s1 (single isomer, unassigned) [Example 256]
1.7 nM | 20 nM | O=C(CC1CN(C2CC3(CCCCC3)C2)CCO1)Nc1nnc(N[C@@H]2CCN(c3cccnn3)C2)s1 (some centres unmarked)
3.4 nM | 37.2 nM | CC1(C)CCC(CN2CCO[C@H](CC(=O)Nc3nnc(N[C@@H]4CCN(c5cccnn5)C4)s3)C2)CC1 (single isomer, unassigned) [Example 72]
3.7 nM | 107 nM | CN(Cc1cccc(OC(F)(F)F)c1)C1(CC(=O)Nc2nnc(N[C@@H]3CCN(c4cccnn4)C3)s2)CC1
3.5 nM | 29.4 nM | CC(C)Oc1ccccc1SC1CCN(CCC(=O)Nc2nnc(N[C@@H]3CCN(c4cccnn4)C3)s2)CC1
